# Measured values as given in ChEMBL document CHEMBL4808148, “HDAC6 screening dataset using tau-based substrate in an enzymatic assay yields selective inhibitors and activators” (2021).
# The list shows a part of the results, in another mix than the full data.
# Biological target: T1, Protein deacetylase HDAC6 (Homo sapiens) (UniProt Q9UBN7)
# T1 sequence (whole entry): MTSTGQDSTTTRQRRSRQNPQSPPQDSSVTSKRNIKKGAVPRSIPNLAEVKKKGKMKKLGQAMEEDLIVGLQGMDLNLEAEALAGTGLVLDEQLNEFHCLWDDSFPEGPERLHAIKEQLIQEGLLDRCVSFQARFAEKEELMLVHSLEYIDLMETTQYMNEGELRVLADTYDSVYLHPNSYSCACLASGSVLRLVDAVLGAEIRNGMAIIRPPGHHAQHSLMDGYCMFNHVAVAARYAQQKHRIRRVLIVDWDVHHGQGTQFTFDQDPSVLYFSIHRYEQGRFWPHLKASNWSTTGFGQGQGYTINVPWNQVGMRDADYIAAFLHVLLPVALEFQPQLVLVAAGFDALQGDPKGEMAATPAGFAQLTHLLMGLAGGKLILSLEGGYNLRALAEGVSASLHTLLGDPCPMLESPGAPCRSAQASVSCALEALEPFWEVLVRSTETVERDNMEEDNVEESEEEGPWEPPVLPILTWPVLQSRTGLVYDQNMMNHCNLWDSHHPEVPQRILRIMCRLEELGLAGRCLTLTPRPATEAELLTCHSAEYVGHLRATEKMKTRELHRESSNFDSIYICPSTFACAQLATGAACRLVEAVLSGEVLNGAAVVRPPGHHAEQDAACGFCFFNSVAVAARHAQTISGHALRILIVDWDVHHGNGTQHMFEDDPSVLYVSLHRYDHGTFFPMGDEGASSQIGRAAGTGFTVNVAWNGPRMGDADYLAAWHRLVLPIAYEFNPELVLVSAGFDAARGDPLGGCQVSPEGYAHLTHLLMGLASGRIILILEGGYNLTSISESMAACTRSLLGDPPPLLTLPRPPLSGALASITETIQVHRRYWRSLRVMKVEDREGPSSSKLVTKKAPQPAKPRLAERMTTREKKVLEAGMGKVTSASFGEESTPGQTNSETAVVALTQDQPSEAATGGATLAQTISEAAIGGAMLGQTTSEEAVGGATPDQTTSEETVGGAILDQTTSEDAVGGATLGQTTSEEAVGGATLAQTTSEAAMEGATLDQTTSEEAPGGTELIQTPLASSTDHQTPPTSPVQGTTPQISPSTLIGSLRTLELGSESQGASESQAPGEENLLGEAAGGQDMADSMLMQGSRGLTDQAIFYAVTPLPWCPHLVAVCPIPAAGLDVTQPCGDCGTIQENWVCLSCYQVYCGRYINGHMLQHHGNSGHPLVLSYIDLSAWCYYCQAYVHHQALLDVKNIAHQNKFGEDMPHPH
# Details: at 10 µM
row,Structure (SMILES),inhibition [%]
1,CN(CCCl)CCCl,-0.07
2,CCC(=O)N(c1ccccc1)C1(COC)CCN(CCc2cccs2)CC1,0.91
